Ab-14 heavy chain CDR variants: yeast mating affinities

Target peptide (SARS-CoV-2 spike, HR2 region): PDVDLGDISGINAS

The variants keep the light chain, the linker and the frameworks of Ab-14 (scFv order VH, a (GGGGS)3 linker, VL).
VH: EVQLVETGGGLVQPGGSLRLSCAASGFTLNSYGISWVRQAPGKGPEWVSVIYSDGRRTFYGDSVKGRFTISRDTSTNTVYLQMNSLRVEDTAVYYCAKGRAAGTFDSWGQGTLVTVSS
VL: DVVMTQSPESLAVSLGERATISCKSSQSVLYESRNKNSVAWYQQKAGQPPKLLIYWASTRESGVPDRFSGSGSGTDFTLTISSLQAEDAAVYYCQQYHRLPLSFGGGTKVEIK

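These sequences belong to a second round, designed from the earlier measurements on random variants of the parent. Several design methods are mixed in this list. The scFvs were displayed on barcoded MATa yeast, the peptide on MATalpha yeast. After mating in shaken culture at 30 °C for 16 h, diploids were selected and their barcode pairs sequenced. The ratio of observed to expected reads was calibrated, replicate by replicate, on BCL2-family standards whose Kd was known from biolayer interferometry. There are six technical replicates.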

Positions count from residue 1 of the parent VH; S31E puts E in place of S.
This list holds designs with at most six substitutions.
Scale: log10 of Kd in nM, estimated from mating counts; low values are strong binders.
A pair that was not seen in that replicate is written "nd"; this usually means weak binding, but a binder can also be missed.
Three control strains display no target. For all heavy chain designs, 1% of the pairings with them gave a signal, with a median of 2.08 and one signal in twenty below 0.84, so weak values seen in few replicates may be background.
Of ten entries with the parent sequence, four were seen in most replicates (averages 0.34 to 2.37), three in one and three in none, so single entries are noisy.
The authors' rule: three or more of the six replicates give a measured affinity, fewer mean a poor binder.
A sequence measured in both rounds can read differently, since the two assays cover different ranges.

| changes | log10 Kd, replicates |
|---|---|
| S31E G61S A102G D106M | nd nd nd nd nd nd |
| T28P S31L Y32F | nd nd nd nd nd nd |
| T28E S31E G61H A101T S107T | 0.71 -0.77 0.64 0.40 -0.12 0.24 |
| T28H R100Q A101T | nd 0.84 1.08 1.21 1.18 nd |
| S31D S63A S107I | nd nd nd nd nd nd |
| T28E I34G S53A R100M A101V S107L | nd nd nd nd nd nd |
| S31G G61C R100P T104Y | 0.97 1.40 nd 1.14 1.85 2.53 |
| T28S R100E A101E | 0.01 0.09 0.21 0.11 0.28 1.23 |
| T28S R100M A101E S107D | 1.07 0.03 0.09 -0.29 0.23 0.09 |
| T28W S31D G61K | 1.18 1.23 0.88 0.66 1.24 1.32 |
| N30E G61A S63A | nd nd nd nd nd nd |
| S31D F59E G61S | 1.21 1.48 1.83 2.13 1.33 1.82 |
| G26K F59G R100V T104I | nd nd nd nd nd nd |
| G61S R100K A101S | 1.67 1.29 0.95 1.07 0.88 1.62 |
| G26K T28S R56K A101T | nd 1.14 0.64 1.12 0.66 1.36 |
| L29M G61D | nd nd nd nd nd nd |
| K65R A102P | nd nd nd nd nd nd |
| R56V T58K G61S | 0.80 0.62 0.59 0.78 0.59 0.34 |
| S31E A101M D106I | nd nd nd nd nd nd |
| S63N | 0.66 1.15 nd 1.22 1.59 nd |
| T28D G61A T104S | 1.36 0.68 1.57 1.19 0.86 2.16 |
| G33D G61S F105G S107L | nd nd nd nd nd nd |
| F27A S31E G103V S107Q | nd nd nd nd nd nd |
| S31D G61S R100T | 1.55 2.54 1.30 1.81 nd 1.53 |
| T28D R56K G61A A101Q | 0.53 -1.42 -0.41 -0.80 -1.62 0.13 |
| L29M S31D T58E G61T D106F | nd nd nd nd nd nd |
| S53A S63R A102S F105N D106K | nd nd nd nd nd nd |
| T28E G61E A101T | 0.87 1.07 0.21 -0.27 0.25 0.18 |
| N30D D106T S107R | nd nd nd nd nd nd |
| N30E S31N F59A S63A | 0.73 0.65 0.32 0.30 0.16 1.14 |
| T28S G61I R100N S107K | 0.84 0.20 0.37 0.92 0.52 1.00 |
| T28F S31E R100Q A101T | 0.71 nd nd nd nd nd |
| G61S G103V S107K | nd nd nd nd nd nd |
| T28D G61Q R100E S107T | 0.31 0.41 -0.36 -0.05 -0.15 -0.08 |
| T28S S31E R56W A101T | 0.07 -0.10 -0.27 0.00 0.22 0.20 |
| S31E G61A S63D A101T | 0.11 -0.13 -0.09 -0.17 -0.32 -0.33 |
| T28E G61S R100Q A101T | 0.08 0.42 -0.26 -0.33 -0.83 0.12 |
| F27Q T28K S31N S53A A101G T104I | nd nd nd nd nd nd |
| T28S G61Q A101T | nd nd nd nd 0.83 0.77 |

Picked from the list: the 2 lowest averages where every replicate gave a value.

changes,"log10 Kd, replicates"
T28D R56K G61A A101Q,0.53 -1.42 -0.41 -0.80 -1.62 0.13
S31E G61A S63D A101T,0.11 -0.13 -0.09 -0.17 -0.32 -0.33

The measurements come from Li et al. 2023 (doi:10.1038/s41467-023-39022-2) through the FLAb antibody collection.